# Laboratory results published in paper PMC8308021, “Indole- and Pyrazole-Glycyrrhetinic Acid Derivatives as PTP1B Inhibitors: Synthesis, In Vitro and In Silico Studies” (Molecules, 2021).
# Target: T1, PTP1B (Homo sapiens, UniProt P18031)
# T1 sequence (P18031 1-435): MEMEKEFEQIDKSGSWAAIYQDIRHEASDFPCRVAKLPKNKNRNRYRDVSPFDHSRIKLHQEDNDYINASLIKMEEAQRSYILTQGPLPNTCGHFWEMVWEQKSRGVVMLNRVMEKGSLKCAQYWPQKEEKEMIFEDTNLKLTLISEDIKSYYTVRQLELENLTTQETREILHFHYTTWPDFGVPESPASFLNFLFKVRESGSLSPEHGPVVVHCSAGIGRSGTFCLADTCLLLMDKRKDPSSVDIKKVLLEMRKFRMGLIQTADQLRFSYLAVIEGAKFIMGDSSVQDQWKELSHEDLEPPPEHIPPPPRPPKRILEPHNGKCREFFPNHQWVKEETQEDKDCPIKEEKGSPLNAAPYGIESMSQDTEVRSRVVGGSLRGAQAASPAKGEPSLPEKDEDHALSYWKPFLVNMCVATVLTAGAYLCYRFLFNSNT
# Experiment: PTP1B inhibitory assay (pNPP, spectrocolorimetric)
# Assay type: biochemical
# Settings: pNPP substrate; three independent determinations
# Protocol: To test the inhibitory activity of the compounds against PTP1B, a spectrocolorimetric method previously described was employed. The compounds and positive control were dissolved in DMSO or buffer solution [50 mM; Tris-HCI Buffer, pH 6.8], DL-dithiothreitol 1.5 mM, all from Sigma–Aldrich, St. Louis, MO, USA. Aliquots of 0–10 μL of testing compounds (triplicated) were incubated for 10 min at 37 °C with 85 μL of enzyme stock solution (3 μM) in buffer solution. After incubation, 5 μL of the substrate p-nitrophenyl phosphate (pNPP, 0.5 mM, Sigma–Aldrich, St. Louis, MO, USA) were added and incubated a further 25 min at 37 °C; then, the absorbance was recorded at 415 nm.
structure (smiles),measurement,value
"CC1(C)[C@@H](O)CC[C@]2(C)[C@H]3C(=O)C=C4[C@@H]5C[C@@](C)(C(=O)O)CC[C@]5(C)CC[C@@]4(C)[C@]3(C)CC[C@@H]12 [GA, glycyrrhetinic acid]",IC50,62 ± 5.04 µM
